ChEMBL document CHEMBL1130399, “Synthesis and pharmacological comparison of dimethylheptyl and pentyl analogs of anandamide” (J Med Chem, 1997)

Amino acid sequences for entries named in this document (tags omitted). A change or cut given only in a name is not applied to a line headed by its entry.
UniProt Q9QZN9: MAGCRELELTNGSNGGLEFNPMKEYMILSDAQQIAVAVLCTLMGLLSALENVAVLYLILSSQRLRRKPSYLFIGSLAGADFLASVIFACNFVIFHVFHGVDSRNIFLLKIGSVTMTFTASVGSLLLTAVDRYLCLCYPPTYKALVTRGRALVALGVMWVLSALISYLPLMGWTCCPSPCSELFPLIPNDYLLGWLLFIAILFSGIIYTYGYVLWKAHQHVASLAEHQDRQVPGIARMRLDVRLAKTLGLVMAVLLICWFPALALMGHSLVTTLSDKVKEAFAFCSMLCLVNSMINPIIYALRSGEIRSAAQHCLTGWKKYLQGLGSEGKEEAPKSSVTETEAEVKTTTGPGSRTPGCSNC
UniProt P20272: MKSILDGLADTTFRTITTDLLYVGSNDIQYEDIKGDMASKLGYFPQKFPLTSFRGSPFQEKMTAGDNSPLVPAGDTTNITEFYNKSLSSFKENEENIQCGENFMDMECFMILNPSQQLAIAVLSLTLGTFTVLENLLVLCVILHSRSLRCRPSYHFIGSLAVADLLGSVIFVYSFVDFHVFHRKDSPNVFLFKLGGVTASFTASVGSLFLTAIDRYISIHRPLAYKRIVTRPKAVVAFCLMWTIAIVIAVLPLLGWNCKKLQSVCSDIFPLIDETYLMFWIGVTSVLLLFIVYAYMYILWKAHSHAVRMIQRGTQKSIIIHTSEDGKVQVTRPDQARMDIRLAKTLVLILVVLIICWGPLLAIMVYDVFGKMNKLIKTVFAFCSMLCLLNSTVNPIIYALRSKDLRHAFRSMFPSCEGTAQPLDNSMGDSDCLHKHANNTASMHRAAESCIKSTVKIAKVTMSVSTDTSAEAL

Key:
Cannabinoid receptor [1] = target: T1, Cannabinoid receptor (Rattus norvegicus, UniProt Q9QZN9+P20272); assay: Binding affinity towards cannabinoid receptor using [3H]SR-141,716A as radioligand in rat brain membrane; type: cell membranes
Cannabinoid receptor [2] = target: T1, Cannabinoid receptor; assay: Binding affinity towards cannabinoid receptor using [3H]CP-55940 as radioligand in rat brain membrane; type: cell membranes

Compound | Ki (Cannabinoid receptor [1]) [nM] | Ki (Cannabinoid receptor [2]) [nM]
CCCCC/C=C\C/C=C\C/C=C\C/C=C\CCCC(=O)NC[C@H](C)O | 2890 | 
CCCCC/C=C\C/C=C\C/C=C\C/C=C\CCCC(=O)NCCO [ANANDAMIDE] |  | 25
CCCCC/C=C\C/C=C\C/C=C\C/C=C\CCCC(=O)N[C@H](C)CO [METHANANDAMIDE] | 585 | 22
